Reference: patent US8877745B2, “CCR2 receptor antagonists, method for producing the same, and use thereof as medicaments” (Boehringer Ingelheim International GmbH, priority 2010, dated 2014)

Amino acid sequences for entries named in this document (tags omitted).
UniProt P41597, whole entry: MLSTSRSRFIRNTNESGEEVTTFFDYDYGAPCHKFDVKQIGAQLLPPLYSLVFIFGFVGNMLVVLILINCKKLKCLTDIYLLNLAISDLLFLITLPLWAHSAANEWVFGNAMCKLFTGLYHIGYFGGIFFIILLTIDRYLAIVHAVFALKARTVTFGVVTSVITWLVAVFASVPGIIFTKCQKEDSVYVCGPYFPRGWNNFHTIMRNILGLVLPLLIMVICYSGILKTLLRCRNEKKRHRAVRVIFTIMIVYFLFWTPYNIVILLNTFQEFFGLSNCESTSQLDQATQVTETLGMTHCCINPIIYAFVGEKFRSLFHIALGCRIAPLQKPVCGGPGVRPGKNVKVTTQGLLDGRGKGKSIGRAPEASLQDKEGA

Biological target: CCR2 (Homo sapiens, UniProt P41597)
Assay: CCR2 receptor membrane binding assay ([125I]MCP-1, THP-1 cell membranes, SPA beads)
Conditions: read-out: hKi; THP-1 membranes, [125I]MCP-1, bound radioactivity determined after 8 h
Experimental: The above exemplary substances have been tested for binding to CCR2 using a binding assay as outlined herein below:
THP-1 cells (human acute monocytic leukaemia cells) were cultured under standardized conditions at 37° C. and 5% CO2 in a humidified incubator. THP-1 cells were cultivated in RPMI 1640 medium (Gibco 21875) containing 1% MEM-NEAA (Gibso 11140) 2 mM L-glutamine, 1.5 g/L sodium bicarbonate, 4.5 g/L glucose, 10 mM HEPES and 1.0 mM sodium pyruvate, 90%; 10% fetal calf serum (FCS Gibco 10500-064).
Membranes were prepared from THP-1 cells. THP-1 cells were centrifuged at 300×g at 4° C. for 10 min. The cell pellet was resuspended in Phosphate Buffer Saline (PBS, including 10 μM Pefabloc and a protease inhibitor mix ‘complete’, Boehringer Mannheim (1 tablet/50 ml)), to a concentration of […]. The membrane preparation was performed by disrupting the cells by nitrogen […] (at 50 bar, for 1 h) in a “Nitrogen Bombe” (Parr Instrument). […]
Perkin Elmer NEX 332 Jod 125 MCP-1, Stock: 2200 Ci/mmol solved in […] assay buffer, stored at −20° C. […] Bound radioactivity was determined by scintillation counter after 8 h. Determination of affinity of test compounds (dissociation constant hKi) is calculated by iterative fitting of experimental data using the “easy sys” program, which is based on law of mass action (Schittkowski K. (1994), Numerische Mathematik, Vol. 68, 129-142).

Compound	Ki
Cc1c(C(=O)N2CCC(N[C@@H]3CCOC[C@@H]3F)CC2)nc(C2CC2)nc1N1CCc2ccc(C(F)(F)F)cc2C1 (relative stereo) [69t]	2 nM
Cc1c(C(=O)N2CCC(N[C@@H]3CCOC[C@@H]3F)CC2)nc(C2CC2)nc1N1CCc2ccc(C(F)(F)F)cc2C1 (relative stereo) [69u]	3 nM
